According to ChEMBL document CHEMBL3232832, “Derivatives of dibenzothiophene for positron emission tomography imaging of α7-nicotinic acetylcholine receptors” (J Med Chem, 2013):

Tested on: Nucleic Acid
Experiment: Ratio of drug uptake in cortex to cerebellum in monkey
Details: rhesus monkey, in vivo

Structure (SMILES): [11CH3]Nc1cccc(C(=O)O[C@H]2CN3CCC2CC3)c1
- Ratio: 0.4
